Experiment: in vivo
Conditions: dog, po, 10 mg/kg, t1/2 (biological half life), microbiological assay

## CC[C@H]1OC(=O)[C@H](C)[C@@H](O[C@H]2C[C@@](C)(OC)[C@@H](O)[C@H](C)O2)[C@H](C)[C@@H](O[C@@H]2O[C@H](C)C[C@H](N(C)C)[C@H]2O)[C@](C)(O)C[C@@H](C)C(=O)[C@H](C)[C@@H](O)[C@]1(C)O [Std, Erythromycin A, reference compound]
  half-life: 2 h
